The values below are quoted from earlier work in patent publication US10487348B2, “3-alpha-hydroxysteroid dehydrogenase mutants and process for the preparation of ursodeoxycholic acid” (Pharmazell GmbH, priority 2014, dated 2019).

Protein sequences, listed by entry. Tags and fused reporters are not part of them. Lines headed by an entry give the natural chain unless they say otherwise; changes in a name come on top.
UniProt A4ECA9: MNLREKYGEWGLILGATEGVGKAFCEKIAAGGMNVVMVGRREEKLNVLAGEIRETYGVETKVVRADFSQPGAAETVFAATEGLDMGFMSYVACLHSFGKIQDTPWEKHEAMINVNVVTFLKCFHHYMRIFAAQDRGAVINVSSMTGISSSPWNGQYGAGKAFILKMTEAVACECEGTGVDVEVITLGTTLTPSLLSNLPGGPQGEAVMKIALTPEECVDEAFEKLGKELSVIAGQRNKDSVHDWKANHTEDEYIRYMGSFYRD

Each structure is given as a SMILES string.

The target of this series is 7β-HSDH from Collinsella aerofaciens DSM 3979 (Collinsella aerofaciens, UniProt A4ECA9). The following applies: 7β-HSDH wild type; value for the substrate/cofactor named; cited from earlier work.

Consider `C[C@H](CCC(=O)O)[C@H]1CC[C@H]2[C@@H]3C(=O)C[C@@H]4CC(=O)CC[C@]4(C)[C@H]3CC(=O)[C@]12C` [DHCA, dehydrocholic acid], for which the Km (in general, the substrate concentration at which the rate is half of its maximum) is 9.23 µM.
